# Measured values from patent US20210253716A1 (Regeneron, published 2021).
# T1: human ACVR1 extracellular domain expressed with a C-terminal myc-myc-hexahistidine tag (human)
# T1 construct: also called hACVR1-MMH
# T1 chain: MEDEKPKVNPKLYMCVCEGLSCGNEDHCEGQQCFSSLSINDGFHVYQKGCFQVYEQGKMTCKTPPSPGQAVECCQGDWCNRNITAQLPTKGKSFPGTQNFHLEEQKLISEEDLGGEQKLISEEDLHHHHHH
# T2: mouse ACVR1 extracellular domain expressed with a C-terminal myc-myc-hexahistidine tag (mouse)
# T2 construct: also called mACVR1-MMH; mACVR1-mmh
# T2 chain: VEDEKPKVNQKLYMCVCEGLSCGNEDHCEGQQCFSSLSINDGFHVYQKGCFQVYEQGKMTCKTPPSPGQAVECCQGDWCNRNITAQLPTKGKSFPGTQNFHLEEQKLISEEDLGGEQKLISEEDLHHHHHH
# T3: human ACVR1 extracellular domain expressed with a C-terminal mouse IgG2a Fc tag (human)
# T3 construct: also called hACVR1-mFc
# T3 chain: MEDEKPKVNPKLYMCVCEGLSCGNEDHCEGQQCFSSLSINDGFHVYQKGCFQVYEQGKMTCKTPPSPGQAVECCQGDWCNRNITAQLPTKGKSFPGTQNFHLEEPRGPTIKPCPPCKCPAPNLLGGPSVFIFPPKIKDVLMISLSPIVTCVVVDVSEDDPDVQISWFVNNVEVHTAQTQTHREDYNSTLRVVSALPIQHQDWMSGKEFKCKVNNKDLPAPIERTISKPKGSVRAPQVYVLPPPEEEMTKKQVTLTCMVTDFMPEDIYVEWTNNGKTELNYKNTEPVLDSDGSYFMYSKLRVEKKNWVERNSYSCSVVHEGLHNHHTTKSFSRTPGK
# T4: full length human ACVR1 (R206H) on HEK293/BRE-luc/hACVR1-R206H-clone H2 cells (human, UniProt Q04771 21-509)
# T4 construct: also called HEK293/hACVR1-R206H
# T4 sequence: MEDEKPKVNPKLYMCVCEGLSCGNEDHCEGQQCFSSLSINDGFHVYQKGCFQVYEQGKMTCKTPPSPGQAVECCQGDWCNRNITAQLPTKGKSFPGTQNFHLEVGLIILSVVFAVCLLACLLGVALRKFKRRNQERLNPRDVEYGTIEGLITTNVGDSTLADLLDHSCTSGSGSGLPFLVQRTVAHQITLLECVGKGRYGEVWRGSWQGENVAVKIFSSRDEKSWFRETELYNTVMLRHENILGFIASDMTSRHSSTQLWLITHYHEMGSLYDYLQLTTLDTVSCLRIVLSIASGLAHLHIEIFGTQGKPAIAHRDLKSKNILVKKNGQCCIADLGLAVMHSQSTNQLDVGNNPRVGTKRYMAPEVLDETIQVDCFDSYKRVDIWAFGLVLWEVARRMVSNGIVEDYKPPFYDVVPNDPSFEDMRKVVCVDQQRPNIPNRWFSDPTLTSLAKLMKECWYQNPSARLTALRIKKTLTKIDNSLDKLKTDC
# Key:
# [1] = target: T1, human ACVR1 extracellular domain …; assay: SPR (Biacore), mAb captured, 37 C
# Protocol: (§1) Equilibrium dissociation constants (KD) for ACVR1 binding to purified anti-ACVR1 monoclonal antibodies were determined using a real-time surface plasmon resonance biosensor (SPR-Biacore), Biacore 4000. All binding studies were performed in 10 mM HEPES, 150 mM NaCl, 3 mM EDTA, and 0.05% v/v surfactant Tween-20, pH 7.4 (HBS-ET) running buffer at 25° C. and 37° C. The Biacore CM5 sensor surface was first derivatized by amine coupling with a monoclonal mouse anti-human Fc antibody (GE, #BR-1008-39 or REGN2567) to capture anti-ACVR1 monoclonal antibodies. […] ACVR1 reagents were then injected over anti-human Fc captured anti-ACVR1 monoclonal antibody surface for 2.5-3 minutes at a flow rate of 30 μL/minute, while the dissociation of monoclonal antibody bound ACVR1 reagent was monitored for 10-15 minutes in HBS-ET running buffer. Kinetic association rate constant (kₐ) and dissociation rate constant (kd) were determined by fitting the real-time sensorgrams to a 1:1 binding model using Scrubber 2.0c curve-fitting software. Binding dissociation equilibrium constants (KD) and dissociative half-lives (t½) were calculated from the kinetic rate constants as: […]
# [2] = target: T2, mouse ACVR1 extracellular domain …; assay: SPR (Biacore), mAb captured, 37 C
# Protocol: as §1
# [3] = target: T3, human ACVR1 extracellular domain …; assay: SPR (Biacore), mAb captured, 37 C
# Protocol: as §1
# [4] = target: T4, full length human ACVR1 (R206H) on …; assay: flow cytometry, 70 nM antibody, HEK293/hACVR1-R206H cells
# Protocol: To assess binding of the anti-ACVR1 antibodies of the invention to the receptor expressed on the cell surface, either 66.6 nM or 70 nM of the antibodies were incubated with 0.5×10⁶ cells/well at 4° C. for 30 minutes in PBS (without calcium and magnesium) containing 2% FBS. […] Cells were fixed using BD CytoFix™ (Becton Dickinson, #554655) and analyzed on either Hypercyt® or IQue® Flow Cytometers (Intellicyt®). Unstained and secondary antibody alone controls were also tested for all cell lines. The results were analyzed using ForeCyt® (IntelliCyt®) software to determine the geometric means of fluorescence for viable cells and binding ratios were calculated by normalizing the geometric mean value of the test condition by the geometric mean value of the corresponding unstained cells.
# [5] = target: T4, full length human ACVR1 (R206H) on …; assay: cell-based or functional assay
# [6] = target: T1, human ACVR1 extracellular domain …; assay: SPR (Biacore), mAb captured, 25 C
# Protocol: as §1
# [7] = target: T2, mouse ACVR1 extracellular domain …; assay: SPR (Biacore), mAb captured, 25 C
# Protocol: as §1
# [8] = target: T3, human ACVR1 extracellular domain …; assay: SPR (Biacore), mAb captured, 25 C
# Protocol: as §1
binder,measurement,setting,value
"mAb27396 (antibody, human IgG4 S228P, kappa, V domains shown) VH: QVHLVESGGGVVQPGRSLRLSCAASGFTFSNYGIHWVRQVPGKGLEWVAVISYDGNNKYYGDSVKGRFTISRDNSKNTLYLQMNSLRPEDTAIYYCAKDRGLDTAGDYFDYWGQGTLVTVSS VL: EIVMTQSPATLSVSTGERATLSCRASQNISSKLAWYQQKPGQAPRLLIYGASTRASGIPARFWGSGSGTEFTLTISSLQSEDFAVFYCLQYNNWWTFGQGTKVEIKR",900 nM or 100 nM Ag Bound (RU),[1],22 RU
same,Kd,[1],362 nM
same,koff,[1],0.18 s⁻¹
same,kon,[1],496000 M⁻¹ s⁻¹
same,t½,[1],0.06 min
same,900 nM or 100 nM Ag Bound (RU),[2],4 RU
same,100 nM Ag Bound (RU),[3],197 RU
same,Kd,[3],4.31 nM
same,koff,[3],0.00196 s⁻¹
same,kon,[3],454000 M⁻¹ s⁻¹
same,t½,[3],6 min
same,MFI - Normalized to Unstained Control,[4],954 fold
same,"% Inhibition, BRE-luc reporter, 2 nM hBMP7",[5],90%
same,"IC50 [M], BRE-luc reporter, 2 nM hBMP7",[5],5.8e-10 M
same,900 nM or 100 nM Ag Bound (RU),[6],23 RU
same,Kd,[6],291 nM
same,koff,[6],0.0745 s⁻¹
same,kon,[6],256000 M⁻¹ s⁻¹
same,t½,[6],0.16 min
same,900 nM or 100 nM Ag Bound (RU),[7],1 RU
same,binding result,[7],no binding (tested: 900 nM or 100 nM)
same,100 nM Ag Bound (RU),[8],170 RU
same,Kd,[8],1.52 nM
same,koff,[8],0.000493 s⁻¹
same,kon,[8],324000 M⁻¹ s⁻¹
same,t½,[8],23 min
